Reference: ChEMBL document CHEMBL1141702 (Bioorg Med Chem Lett, 2008)

The chains behind the UniProt entries cited, without tags or fusion partners.
UniProt Q60492, whole entry: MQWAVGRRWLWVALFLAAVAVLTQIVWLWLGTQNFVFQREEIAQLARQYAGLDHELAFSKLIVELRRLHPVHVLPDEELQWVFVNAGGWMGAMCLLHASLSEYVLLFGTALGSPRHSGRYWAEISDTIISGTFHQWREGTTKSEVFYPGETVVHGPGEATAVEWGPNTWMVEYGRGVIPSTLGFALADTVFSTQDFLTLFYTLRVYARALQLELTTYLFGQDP

Columns and labels:
[1] = species: Rattus norvegicus; assay: Selectivity ratio of Ki for rat brain stem SERT to Ki for rat striatum DAT; format: tissue-based
[2] = species: Rattus norvegicus; assay: Selectivity ratio of Ki for rat brain stem SERT to Ki for rat frontal cortex NET; format: tissue-based
[3] = Selectivity ratio of Ki for rat brain stem SERT to Ki for guinea pig brain sigma 1 receptor
[4] = target: Sigma non-opioid intracellular receptor 1 (Cavia porcellus, UniProt Q60492); assay: Displacement of [3H](+)-pentazocine from sigma 1 receptor in guinea pig brain membrane; format: cell membranes
How it was run: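 Tissue was previously frozen guinea pig brain minus cerebellum, incubated 120 min at 25 °C. Ki values derived from competition binding.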

| SMILES | Ratio Ki [1] | Ratio Ki [2] | Ratio Ki [3] | Ki [4] [nM] |
| --- | --- | --- | --- | --- |
| C=CC(=O)O[C@@H](Cc1ccccc1)CN1CCN(CCCN(c2ccc(F)cc2)c2ccc(F)cc2)CC1 | 202 | 248 | 14 | – |
| OC(CCN1CCN(CCCN(c2ccc(F)cc2)c2ccc(F)cc2)CC1)c1ccccc1 (racemic) | – | – | – | 45 |
| O[C@@H](Cc1ccccc1)CN1CCN(CCCN(c2ccc(F)cc2)c2ccc(F)cc2)CC1 | 453 | 445 | 16 | – |
| O=C(CCCc1ccccc1)OC(CCN1CCN(CCCN(c2ccc(F)cc2)c2ccc(F)cc2)CC1)c1ccccc1 (centres undefined) | 43 | 248 | 5 | – |
| CC(=O)OC(CCN1CCN(CCCN(c2ccc(F)cc2)c2ccc(F)cc2)CC1)c1ccccc1 (centres undefined) | 48 | 231 | 13 | – |
| C=CC(=O)OC(CCN1CCN(CCCN(c2ccc(F)cc2)c2ccc(F)cc2)CC1)c1ccccc1 (centres undefined) | 47 | 291 | 13 | – |
| O[C@H](Cc1ccccc1)CN1CCN(CCCN(c2ccc(F)cc2)c2ccc(F)cc2)CC1 | 97 | 393 | 6 | – |
